Patent US12319671B2, “1-pyrazolyl, 5-, 6-disubstituted indazole derivatives as LRRK2 inhibitors, pharmaceutical compositions, and uses thereof” (Merck Sharp & Dohme LLC, priority 2019, dated 2025)

Chains of the proteins cited; added tags and fusions are not shown. Residues count along the entry.
UniProt Q5S007, 970-2527 G2019S: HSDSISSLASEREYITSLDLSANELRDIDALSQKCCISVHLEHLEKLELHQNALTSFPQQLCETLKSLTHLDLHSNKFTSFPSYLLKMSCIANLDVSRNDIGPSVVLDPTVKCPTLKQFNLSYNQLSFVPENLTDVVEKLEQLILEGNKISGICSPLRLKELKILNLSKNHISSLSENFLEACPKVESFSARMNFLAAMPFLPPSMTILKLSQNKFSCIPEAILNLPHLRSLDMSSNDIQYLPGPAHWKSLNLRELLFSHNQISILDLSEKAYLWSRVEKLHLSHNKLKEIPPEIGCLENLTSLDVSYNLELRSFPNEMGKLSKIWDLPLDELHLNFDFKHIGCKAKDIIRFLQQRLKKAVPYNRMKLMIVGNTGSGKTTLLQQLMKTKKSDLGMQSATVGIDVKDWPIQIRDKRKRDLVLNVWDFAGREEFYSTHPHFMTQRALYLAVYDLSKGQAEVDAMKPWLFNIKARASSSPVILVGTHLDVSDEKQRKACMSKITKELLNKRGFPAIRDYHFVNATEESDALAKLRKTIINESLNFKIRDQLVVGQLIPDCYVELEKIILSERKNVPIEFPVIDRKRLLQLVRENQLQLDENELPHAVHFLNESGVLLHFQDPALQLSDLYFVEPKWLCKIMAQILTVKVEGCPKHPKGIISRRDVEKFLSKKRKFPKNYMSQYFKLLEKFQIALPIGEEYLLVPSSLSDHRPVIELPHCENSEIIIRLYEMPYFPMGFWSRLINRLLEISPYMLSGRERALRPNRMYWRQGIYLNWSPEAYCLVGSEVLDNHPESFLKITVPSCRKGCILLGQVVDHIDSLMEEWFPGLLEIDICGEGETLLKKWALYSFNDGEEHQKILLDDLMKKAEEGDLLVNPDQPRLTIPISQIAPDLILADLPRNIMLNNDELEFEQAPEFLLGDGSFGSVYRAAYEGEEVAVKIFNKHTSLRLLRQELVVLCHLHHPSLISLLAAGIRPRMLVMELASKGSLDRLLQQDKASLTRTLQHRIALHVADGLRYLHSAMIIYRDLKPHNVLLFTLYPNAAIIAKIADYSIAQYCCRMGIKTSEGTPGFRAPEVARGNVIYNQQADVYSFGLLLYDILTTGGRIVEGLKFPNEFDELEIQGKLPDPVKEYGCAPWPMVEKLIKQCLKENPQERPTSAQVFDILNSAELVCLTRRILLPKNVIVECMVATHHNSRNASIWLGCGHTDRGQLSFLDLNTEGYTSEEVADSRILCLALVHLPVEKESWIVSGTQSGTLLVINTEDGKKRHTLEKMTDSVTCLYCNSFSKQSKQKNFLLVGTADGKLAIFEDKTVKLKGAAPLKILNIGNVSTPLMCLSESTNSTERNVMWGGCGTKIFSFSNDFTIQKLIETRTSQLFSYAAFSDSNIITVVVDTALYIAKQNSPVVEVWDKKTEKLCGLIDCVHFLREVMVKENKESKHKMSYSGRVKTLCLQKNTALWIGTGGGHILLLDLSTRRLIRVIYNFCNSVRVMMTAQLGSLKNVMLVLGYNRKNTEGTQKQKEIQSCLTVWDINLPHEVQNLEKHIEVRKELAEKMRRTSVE

Target: GST-tagged truncated human mutant G2019S LRRK2 (Homo sapiens (Human), UniProt Q5S007, G2019S)
Assay: LRRK2 G2019S Km ATP LanthaScreen Assay
Conditions: comparison of the two enantiomers

Which “relative potency of the two enantiomers from chiral SFC separation” value does the source give for CN1CCC(n2cc(-n3ncc4cc(Cl)c(N5CCN(C6(C)COC6)CC5)cc43)cn2)C1=O (single isomer, unassigned) [Example 5.7, (R or S)-3-(4-(5-chloro-6-(4-(3-methyloxetan-3-yl)piperazin-1-yl)-1H-indazol-1-yl)-1H-pyrazol-1-yl)-1-methylpyrrolidin-2-one] here?
Its value is “more potent enantiomer”.
